Columns and labels:
[1] = target: immunoproteasome from human peripheral blood mononuclear cells (PBMCs), C-L (β1) activity (Homo sapiens, UniProt P28065); assay: In vitro proteasome activity assay, immunoproteasome, C-L (β1); format: biochemical
[2] = target: immunoproteasome from human peripheral blood mononuclear cells (PBMCs), CT-L (β5) activity (Homo sapiens, UniProt P20618+P28062); assay: In vitro proteasome activity assay, immunoproteasome, CT-L (β5); format: biochemical
[3] = test system: SK—N—Be(2)c neuroblastoma cells; assay: Cell viability assay (MTS), SK—N—Be(2)c neuroblastoma cells; settings: highest concentration tested (1 μM), 24 hours exposure
[4] = test system: SK—N—SH neuroblastoma cells; assay: Cell viability assay (MTS), SK—N—SH neuroblastoma cells; settings: highest concentration tested (1 μM), 24 hours exposure
[5] = test system: MYCN2 neuroblastoma cells; assay: Cell viability assay (MTS), MYCN2 neuroblastoma cells; settings: highest concentration tested (1 μM), 24 hours exposure

effect on C-L activity of the immunoproteasome [1]: no effect
effect on CT-L (chymotrypsin-like) activity of the immunoproteasome (FIG. 5) ([2]; 1.0 μM, 2 hours): stimulate
effect on CT-L activity of the immunoproteasome ([2]; at ≤10 μM): no effect
Structure (SMILES): CC(C)[C@H](NC(=O)c1cnccn1)C(=O)N[C@H]1CSCCNC(=O)/C=C/[C@H](C)NC1=O [Compound 6, N—((S)-3-Methyl-1-(((8S,11R,E)-8-methyl-5,10-dioxo-1-thia-4,9-diazacyclododec-6-en-11-yl)amino)-1-oxobutan-2-yl)pyrazine-2-carboxamide]
effect on viability of SK—N—Be(2)c cells [3]: minimal effects
effect on viability of SK—N—SH cells [4]: minimal effects
effect on viability of MYCN2 cells [5]: minimal effects
